# Data taken from patent US9540384B2, “Pyrrolidino heterocycles” (Hoffmann-La Roche Inc., priority 2012, dated 2017).
# By UniProt entry, the sequences of proteins in these tests, tags left out. Chains listed by the source or under a name are the forms on record and can include a tag or linker. Residues count along the entry.
# UniProt Q9Y233, 290-1055 with tags or gaps limits assumed: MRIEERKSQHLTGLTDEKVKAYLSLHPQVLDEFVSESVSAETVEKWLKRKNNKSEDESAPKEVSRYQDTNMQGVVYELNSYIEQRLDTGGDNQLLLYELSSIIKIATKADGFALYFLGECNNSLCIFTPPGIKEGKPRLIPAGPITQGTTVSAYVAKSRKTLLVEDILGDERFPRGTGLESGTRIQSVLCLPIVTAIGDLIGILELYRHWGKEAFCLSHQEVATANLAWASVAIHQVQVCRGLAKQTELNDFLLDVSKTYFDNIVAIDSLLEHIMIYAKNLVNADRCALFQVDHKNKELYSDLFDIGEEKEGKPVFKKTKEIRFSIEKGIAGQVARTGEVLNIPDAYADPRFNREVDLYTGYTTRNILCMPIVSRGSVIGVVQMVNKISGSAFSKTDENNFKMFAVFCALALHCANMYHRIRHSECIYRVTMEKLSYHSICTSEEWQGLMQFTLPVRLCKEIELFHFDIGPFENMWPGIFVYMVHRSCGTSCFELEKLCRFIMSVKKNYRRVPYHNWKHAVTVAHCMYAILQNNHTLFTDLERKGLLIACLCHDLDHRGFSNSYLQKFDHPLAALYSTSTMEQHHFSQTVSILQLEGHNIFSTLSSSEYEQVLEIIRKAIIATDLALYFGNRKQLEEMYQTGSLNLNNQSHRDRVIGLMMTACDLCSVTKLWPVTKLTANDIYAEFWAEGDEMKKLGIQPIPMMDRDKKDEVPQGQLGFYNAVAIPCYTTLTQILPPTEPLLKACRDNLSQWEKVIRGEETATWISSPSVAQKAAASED
# Target: human PDE10A full length (Homo sapiens (Human), UniProt Q9Y233)
# Assay: human PDE10A full length Scintillation Proximity Assay (SPA)
# Details: PDE10A enzyme, 50 nM cGMP + 50 nM [3H]-cGMP, 20 minutes at room temperature
# Experimental: The following test was carried out in order to determine the activity of the compounds of the present invention. PDE10 activity of the compounds of the present invention was determined using a Scintillation Proximity Assay (SPA)-based method similar to the one previously described (Fawcett, L. et al., Proc Natl Acad Sci USA (2000) 97(7):3702-3707).
# The human PDE10A full length assay was performed in 96-well micro titer plates. The reaction mixture of 50 μl contained 20 mM HEPES pH=7.5/10 mM MgCl2/0.05 mg/ml BSA (Sigma cat. #A-7906), 50 nM cGMP (Sigma, cat. #G6129) and 50 nM [3H]-cGMP (GE Healthcare, cat. #TRK392 S.A. 13.2 Ci/mmol), 3.75 ng/well PDE10A enzyme (Enzo Life Science, Lausen, Switzerland cat #SE-534) with or without a specific test compound. A range of concentrations of the potential inhibitor was used to generate data for calculating the concentration of inhibitor resulting in 50% of the effect (e.g. IC50, the concentration of the competitor inhibiting PDE10A activity by 50%). Non-specific activity was tested without the enzyme. The reaction was initiated by the addition of the substrate solution (cGMP and [3H]-cGMP) and allowed to progress for 20 minutes at room temperature. […] Afterwards, radioactive counts were measured on a Perkin Elmer TopCount Scintillation plate reader.
compound,measurement,value
Clc1ccc2nc(OCc3cccc(N4CCCC4)n3)nc(OC3CCOCC3)c2c1,IC50,94 nM
